One series has as its system Mouse. The series is classed as in vivo, Male and female mice of the dd Y strain. How it is done: (§1) Male and female mice of the dd Y strain, 4 weeks of age, as well as male and female rats of the Wistar strain, 7 weeks of age, were used in groups of ten. They were preliminarily raised for a week. Then, two compounds to be tested were dissolved or suspended in physiological saline and administered orally or subcutaneously. In the case of oral administration,the highest possible doses of 0.2 ml/10 g for mice and 2 ml/100 g for rats were used which both corresponded to 5,000 mg/kg. In the case of subcutaneous administration, the doses were reduced to 1/2. […] The animals that died during this period of observation were subjected to postmortem examination.

The test system of another series is Rat. The series is classed as in vivo, male and female rats of the Wistar strain. As for the experimental part: as §1
Another series can be described thus: Solubility. The series is classed as physicochemical.

Read-outs that look alike come from different tables or passages of the source. Where only a bound is given, the exact number is not on record here.

In the case of inositol hexasulfate aluminum salt, the LD50 with Mouse (mouse, in vivo, po, 168 h) is on record as > 5,000 mg/kg; with Mouse (mouse, in vivo, sc, 168 h) it was > 2,500 mg/kg; in the series with Rat (rat, in vivo, po, 168 h), > 5,000 mg/kg; in the series with Rat (rat, in vivo, sc, 168 h), > 2,500 mg/kg.

Consider “inositol hexasulfate sodium aluminum salt”, for which the LD50 is > 5,000 mg/kg in the series on Mouse (Mouse, oral, 7 days observation); > 2,500 mg/kg in the series with Mouse (Mouse, subcutaneous, 7 days observation); > 5,000 mg/kg with Rat (Rat, oral, 7 days observation); > 2,500 mg/kg in the series on Rat (Rat, subcutaneous, 7 days observation). Further, the “solubility in organic solvents” value in the series “Solubility” (absolute ethanol, benzene, etc.) was “very slightly soluble”. The solubility in water entry in “Solubility” (water) was “partially soluble”.

The values are drawn from patent US4215143A (Mitsui Toatsu Chemicals, Incorporated, priority 1978, dated 1980).
